# Antibody variant affinities, Ab-14 light chain, assay 1

Target peptide (SARS-CoV-2 spike, HR2 region): PDVDLGDISGINAS

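The starting antibody came from a phage panning campaign against this peptide. The library (AAYL50) carries one to three amino acid substitutions per variant, with no insertions or deletions. AlphaSeq pools MATa yeast showing the antibodies with MATalpha yeast showing the peptide. Pairs that bind mate more often; barcode pairs of the diploids are counted by sequencing. Each replicate has its own calibration line, from reference interactions of the BCL2 family. The assay was run in three technical replicates.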

Each scFv is VH, three GGGGS repeats, VL, as in the parent Ab-14, and differs from it in the CDRs of the light chain only.
VH: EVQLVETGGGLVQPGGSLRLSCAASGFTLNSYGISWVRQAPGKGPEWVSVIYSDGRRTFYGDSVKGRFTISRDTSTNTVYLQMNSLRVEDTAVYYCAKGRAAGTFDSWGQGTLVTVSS
VL: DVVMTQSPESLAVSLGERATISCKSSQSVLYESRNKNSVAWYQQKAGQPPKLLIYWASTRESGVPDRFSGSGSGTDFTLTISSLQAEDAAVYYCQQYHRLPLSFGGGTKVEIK

Positions count from residue 1 of the parent VL; V29G puts G in place of V. Affinities are written as log10 Kd with Kd in nM; a lower number is a better binder. "nd" marks a missing value. The strain was present, yet no cells mated with the target were sequenced in that replicate, which points to weak or no binding.

With V29G+A57P+E61T the result was nd, nd, nd (controls 0 of 9).
With Q95S+H98F+L102N the result was 1.58, 1.21, 1.57 (controls 0 of 9).
With S26C+V39C+L102D the result was 5.11, nd, 4.36 (controls 2 of 9).
With A57K+Q96L+R99V the result was nd, nd, nd (controls 0 of 9).
With S33E+S103E the result was 1.52, 1.65, 1.36 (controls 3 of 9).
With S38W+V39C+W56R the result was nd, 2.76, nd (controls 0 of 9).
With S25F+Q27S+R60P the result was 0.59, 0.84, 0.81 (controls 1 of 9).
With K24D+S26I+L102H the result was 3.50, 4.04, 5.38 (controls 3 of 9).
With S25A+Q95S+R99G the result was nd, 2.46, nd (controls 1 of 9).
With S28W+L30I+H98W the result was 2.10, 1.87, 2.58 (controls 5 of 9).
With K24L+S26M+Y31D the result was 0.73, 0.89, 0.91 (controls 0 of 9).
With S25P+S38K+V39A the result was nd, 3.86, nd (controls 1 of 9).
With W56V+L102A+S103M the result was 4.07, 2.85, nd (controls 1 of 9).
With R34F+N37K+H98K the result was 1.63, 1.90, 1.91 (controls 3 of 9).
With K24Q+K36Q+T59Y the result was 0.83, 1.08, 1.02 (controls 1 of 9).
With V29E+E61Y+Q95K the result was 0.50, 0.71, 0.56 (controls 1 of 9).
With A40E the result was 4.73, nd, 5.13 (controls 4 of 9).
With S25C+E32Q the result was 1.36, 1.35, 1.35 (controls 6 of 9).
With S25I+R34S the result was 0.11, 0.43, 0.31 (controls 5 of 9).
With Y31E+E32C+R60M the result was 2.94, 2.71, 2.36 (controls 2 of 9).
With A57V+S62A+Y97N the result was 1.42, 1.60, 1.75 (controls 3 of 9).
With E32R+S33R+L102R the result was 4.84, nd, nd (controls 2 of 9).
With V29G+E61W+Q95D the result was nd, nd, nd (controls 3 of 9).
With S26Q+A40F+T59C the result was nd, nd, nd (controls 0 of 9).
With N37I+Y97N+H98A the result was 3.18, 3.17, 3.23 (controls 3 of 9).
With S28D+E32I+K36Y the result was 3.55, nd, nd (controls 0 of 9).
With K24Q+S25I+T59G the result was 0.52, 2.24, 1.44 (controls 0 of 9).
With K36L+P101E+L102I the result was 0.55, 0.73, 0.76 (controls 0 of 9).
With S28E+W56I the result was nd, 5.05, nd (controls 3 of 9).
With K24L+S25H+N37Q the result was nd, nd, nd (controls 0 of 9).
With Q27F+V39T the result was 4.90, nd, nd (controls 1 of 9).
With Y31S+V39E+A57L the result was nd, nd, nd (controls 3 of 9).
With S28W+K36V+L100E the result was 3.11, 2.73, 3.34 (controls 2 of 9).
With Q27F+R34S+A40P the result was nd, nd, 3.40 (controls 2 of 9).
With K24A+S25A+S33G the result was 0.52, 1.12, 0.97 (controls 2 of 9).
With R34E+K36V+Y97C the result was nd, 3.89, nd (controls 1 of 9).
With R60K+S62D+Y97G the result was nd, nd, nd (controls 2 of 9).
With V29W+Q96C+L102F the result was 0.12, 0.33, 0.05 (controls 0 of 9).
With K24P+S26C+S28C the result was 3.93, nd, 3.07 (controls 1 of 9).
With L30M+N35M+L100W the result was 2.52, 2.28, 2.16 (controls 1 of 9).
With S28V+V29F+N35V the result was 1.59, 1.57, 1.70 (controls 7 of 9).
With E61V+H98C+P101K the result was 2.20, 2.25, 2.29 (controls 3 of 9).
With S38L+V39I+T59N the result was nd, nd, nd (controls 0 of 9).
With N35G+A57Y+S103V the result was 4.30, nd, nd (controls 6 of 9).
With L30M+E61L+S103D the result was 3.93, 2.08, 2.39 (controls 2 of 9).
With S25I+Y31V+E61P the result was 0.45, 0.68, 0.64 (controls 3 of 9).
With Q27W+S28Q+E61N the result was nd, 4.30, nd (controls 2 of 9).
With Q27K+A57T+Q96C the result was nd, nd, nd (controls 0 of 9).
With K24R+S33I+S103G the result was nd, nd, nd (controls 0 of 9).
With T59Y+R60S+L100A the result was nd, nd, nd (controls 0 of 9).

For reference, 8 entries of the list once more:

{"changes": "S26Q+A40F+T59C", "log10 Kd (nM) by replicate": "nd, nd, nd", "empty controls": "0/9"}
{"changes": "K24Q+K36Q+T59Y", "log10 Kd (nM) by replicate": "0.83, 1.08, 1.02", "empty controls": "1/9"}
{"changes": "Q95S+H98F+L102N", "log10 Kd (nM) by replicate": "1.58, 1.21, 1.57", "empty controls": "0/9"}
{"changes": "K24P+S26C+S28C", "log10 Kd (nM) by replicate": "3.93, nd, 3.07", "empty controls": "1/9"}
{"changes": "S38W+V39C+W56R", "log10 Kd (nM) by replicate": "nd, 2.76, nd", "empty controls": "0/9"}
{"changes": "Q27F+R34S+A40P", "log10 Kd (nM) by replicate": "nd, nd, 3.40", "empty controls": "2/9"}
{"changes": "K24L+S26M+Y31D", "log10 Kd (nM) by replicate": "0.73, 0.89, 0.91", "empty controls": "0/9"}
{"changes": "S28D+E32I+K36Y", "log10 Kd (nM) by replicate": "3.55, nd, nd", "empty controls": "0/9"}

As a blank, each scFv also met three strains without target: over library AAYL50, 18% of these pairings were detected, typically at 4.19 and seldom below 2.99. Also given: how often the same scFv was detected with the empty control strains. For reference, the parent read 0.65 as the reference entry and 1.68 as a member of this library.

From the AlphaSeq antibody data of Engelhart et al. 2022 (doi:10.1038/s41597-022-01779-4), copy in the FLAb collection.